Experiments:
Assay in all cases: pull-down
[1] = molecular target: His-tagged full-length G3BP1 F15/33W (human, UniProt Q13283 1-466, F15W | F33W)
[2] = molecular target: His-tagged full-length G3BP1 F15/124W (human, UniProt Q13283 1-466, F15W | F124W)
[3] = molecular target: His-tagged full-length G3BP1 F15W (human, UniProt Q13283 1-466, F15W)
[4] = molecular target: His-tagged full-length G3BP1 F33/124W (human, UniProt Q13283 1-466, F33W | F124W)
[5] = molecular target: His-tagged full-length G3BP1 TripleW (F15W/F33W/F124W) (human, UniProt Q13283 1-466, F15W | F33W | F124W)

Measured: reduction of copurification relative to WT

B1: cytoplasmic activating/proliferation associated protein 1 (Caprin1), endogenous (natural protein)
chain: MPSATSHSGSGSKSSGPPPPSGSSGSEAAAGAGAAAPASQHPATGTGAVQTEAMKQILGVIDKKLRNLEKKKGKLDDYQERMNKGERLNQDQLDAVSKYQEVTNNLEFAKELQRSFMALSQDIQKTIKKTARREQLMREEAEQKRLKTVLELQYVLDKLGDDEVRTDLKQGLNGVPILSEEELSLLDEFYKLVDPERDMSLRLNEQYEHASIHLWDLLEGKEKPVCGTTYKVLKEIVERVFQSNYFDSTHNHQNGLCEEEEAASAPAVEDQVPEAEPEPAEEYTEQSEVESTEYVNRQFMAETQFTSGEKEQVDEWTVETVEVVNSLQQQPQAASPSVPEPHSLTPVAQADPLVRRQRVQDLMAQMQGPYNFIQDSMLDFENQTLDPAIVSAQPMNPTQNMDMPQLVCPPVHSESRLAQPNQVPVQPEATQVPLVSSTSEGYTASQPLYQPSHATEQRPQKEPIDQIQATISLNTDQTTASSSLPAASQPQVFQAGTSKPLHSSGINVNAAPFQSMQTVFNMNAPVPPVNEPETLKQQNQYQASYNQSFSSQPHQVEQTELQQEQLQTVVGTYHGSPDQSHQVTGNHQQPPQQNTGFPRSNQPYYNSRGVSRGGSRGARGLMNGYRGPANGFRGGYDGYRPSFSNTPNSGYTQSQFSAPRDYSGYQRDGYQQNFKRGSGQSGPRGAPRGRGGPPRPNRGMPQMNTQQVN
~98%: all assays above
